Measured values reported in patent US20080260842A1, “PERMEATION ENHANCING COMPOSITIONS FOR ANTICHOLINERGIC AGENTS” (priority 2004, published 2008).
Where “and” joins values, the source holds several entries; their conditions need not be identical. Equal values may be shown once.

What was measured:
[1] = Pharmacokinetic study of R/S OXY and DEO enantiomers, transdermal oxybutynin gel (Example 20); assay type: in vivo, human; conditions: single-dose topical 84 mg OXY gel
Procedure: Ten healthy volunteers (Asian Indians, 60% female) aged 18 to 35 (mean 29) years old were treated with 2.8 g of a formulation of the present invention containing 3% w/w of OXY base (84 mg OXY), administered topically as a single dose on the abdomen (700 cm^2).

[2] = Dose-ranging pharmacokinetic study of transdermal oxybutynin gel in healthy volunteers (Example 18); conditions: for Ratio DEO:OXY (Cav): steady-state; for Treatment A/Treatment B Ratio - N-Desethyloxybutynin / Treatment A/Treatment B Ratio - N-Desethyloxybutynin, mean: plasmatic ratio of metabolite; for Treatment A/Treatment B Ratio - N-Desethyloxybutynin: individual subjects; for Treatment A/Treatment B Ratio - N-Desethyloxybutynin, mean: mean of subjects 1-8
Procedure: The study was an open-label, randomized, parallel, three-treatment, dose-ranging pharmacokinetic study. […] The subjects were aged 19 to 53 (mean 35) years.
The oxybutynin transdermal gel formulation contained 3% w/w of oxybutynin base in a hydroalcoholic non-occlusive matrix including the unique combination of permeation enhancers of the present invention. Three different doses of the gel were administered topically once a day during 20 consecutive days: treatment A consisted in a daily amount of 1.4 g applied gel, corresponding to 42 mg oxybutynin; treatment B consisted in a daily amount of 2.0 g applied gel, corresponding to 60 mg oxybutynin; and treatment C consisted in a daily amount of 2.8 g applied gel, corresponding to 84 mg oxybutynin.

With `CCNCC#CCOC(=O)[C@](O)(c1ccccc1)C1CCCCC1` [R-DEX] the “R-DEO Cmax levels relative to R-OXY Cmax levels” value [1] was 1.8 fold.
With `CCNCC#CCOC(=O)C(O)(c1ccccc1)C1CCCCC1` (centres unmarked) [N-desethyloxybutynin] the “Ratio DEO:OXY (Cav)” value ([2]; Treatment A: 42 mg oxybutynin daily) was 1.0, the “Ratio DEO:OXY (Cav)” value ([2]; Treatment B: 60 mg oxybutynin daily) was 0.9 and the “Ratio DEO:OXY (Cav)” value ([2]; Treatment C: 84 mg oxybutynin daily) was 1.3. The “Treatment A/Treatment B Ratio - N-Desethyloxybutynin” value ([2]; scheduled time 192) was 0, the “Treatment A/Treatment B Ratio - N-Desethyloxybutynin” value ([2]; scheduled time 216) was 1.6 (2×) and 2.4141 (2×) and 0.987 (2×) and 1.9012 (2×) and 1.8422 (2×) and the “Treatment A/Treatment B Ratio - N-Desethyloxybutynin, mean” value (from here on “Treatment A/Treatment B Ratio … mean”) ([2]; scheduled time 216) was 1.71. The “Treatment A/Treatment B Ratio - N-Desethyloxybutynin” value ([2]; scheduled time 240) was 0.6358 (2×) and 2.2869 (2×) and 1.9864 (2×) and 1.3309 (2×), the “Treatment A/Treatment B Ratio … mean” value ([2]; scheduled time 240) was 1.68 and the “Treatment A/Treatment B Ratio - N-Desethyloxybutynin” value ([2]; scheduled time 264) was 1.5791 (2×) and 4.4699 (2×) and 1.7418 (2×) and 1.7913 (2×) and 1.6346 (2×) and 0.8027 (2×). The “Treatment A/Treatment B Ratio … mean” value ([2]; scheduled time 264) was 1.95, the “Treatment A/Treatment B Ratio - N-Desethyloxybutynin” value ([2]; scheduled time 288) was 1.29 (2×) and 4.435 (2×) and 0.9392 (2×) and 1.166 (2×) and the “Treatment A/Treatment B Ratio - N-Desethyloxybutynin” value ([2]; scheduled time 312) was 1.472 (2×) and 4.311 (2×) and 3.333 (2×) and 2.905 (2×). The “Treatment A/Treatment B Ratio - N-Desethyloxybutynin” value ([2]; scheduled time 336) was 6.471 (2×) and 1.349 (2×), the “Treatment A/Treatment B Ratio … mean” value ([2]; scheduled time 336) was 2.21 and the “Treatment A/Treatment B Ratio - N-Desethyloxybutynin” value ([2]; scheduled time 360) was 1.162 (2×) and 2.017 (2×) and 1.977 (2×) and 2.408 (2×) and 1.306 (2×). The “Treatment A/Treatment B Ratio … mean” value ([2]; scheduled time 360) was 1.97.
